Screening data: PubChem BioAssay, National Center for Advancing Translational Sciences (NCATS)
Sampled rows, rich in hits. Any-hit rate of the full collection: about 16%.
DT40 TDP1 CPT: DT40-hTDP1 cell growth loss with CPT | chicken DT40 Tdp1-/-;hTDP1 cells + 20 nM CPT, ATP luminescence, 48 h | Potency, µM (titrated, usually from 46.2 µM), for inactives: at the highest dose activity change, negative = growth inhibition, usual class: inhibitors | 420,000 tested, 12% active; also: potency is read from the fitted curve at half-maximal effect; % is scaled to controls: 0 for no effect and ±100 for the full control effect; nearly all actives have a fitted effect of over 55% in size
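Cell growth measured by CellTiter-Glo luminescence after a minimum 48 h, 37 C compound exposure with 20 nM CPT in Tdp1-knockout DT40 cells stably expressing hTDP1, seeded 400/well; qHTS titration format.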
miR-21 reporter: miR-21 reporter, rising signal | HeLa miR-21 FLuc reporter, luciferase, 48 h | Potency, µM (top dose mostly 38.3 µM), inactives show at the highest dose reporter change, positive = more light | 340,000 tested, under 10 active | AID 2288; active = well fitted rising curve with a large enough effect; inconclusive = small, poorly fitted or top-dose-only effect; inactive = no such curve, though single readings can be large or run the other way;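 note: % of control where 0% means no effect; miR-21 action dims this reporter so a rising signal means less miR-21 action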
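HeLa miR-21-FLuc reporter line, endogenous miR-21; 2000 cells/well in DMEM/10% FBS; compound titration up to ~40uM final, 48 h, 37 degree Celsius; luciferase detection reagent, 15 min lysis, CCD luminescence.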
TDP1 cell noCPT: qHTS for Inhibitors of human tyrosyl-DNA phosphodiesterase 1 (TDP1): qHTS in cells in absence of CPT; DT40 Tdp1-/- hTDP1 cells, no CPT, ATP luminescence, 48 h; Potency, µM (top dose mostly 46.2 µM), for the others: at the top dose activity change, negative = growth inhibition, usual class: inhibitors; 420,000 tested, 15% active; AID 686978, 2013; also: potency is read from the fitted curve at half-maximal effect; % is scaled to controls: 0 for no effect and ±100 for the full control effect; nearly all actives have a fitted effect of over 55% in size
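Cells were dispensed at 400 per well, compounds added by pin tool, plates incubated ≥48 hr at 37 °C, then CellTiter-Glo added for 30 min at room temperature before luminescence reading. Line: DT40 Tdp1-/- complemented with hTDP1; camptothecin omitted.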
TDP1 inh: TDP1 (human) enzyme inhibition | Q9NUW8 | recombinant TDP1, AlphaScreen DNA substrate cleavage | Potency, µM (highest dose often 130 µM), inactives show at the highest dose activity change, negative = inhibition, most hits filed as inhibitors | 350,000 tested, 0.28% active; also: potency is read from the fitted curve at half-maximal effect; % is scaled to controls: 0 for no effect and ±100 for the full control effect; nearly all actives have a fitted effect of over 40% in size
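Tdp1 1 nM final; 15 min RT w/ cpd; substrate 15 nM, 5 min; beads 10 ug/ml, 10 min; AlphaScreen read. Neg ctrl: no enzyme.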
uPA generation: inhibitors of cell surface uPA generation | 330,000 tested, 0.31% active | cell surface uPA generation assay, qHTS | Potency, µM (highest dose often 38.3 µM), for inactives: top-dose activity change, negative = inhibition, most hits filed as inhibitors; active = well fitted inhibition curve with a large enough effect; inconclusive = small, poorly fitted or top-dose-only effect; inactive = no such curve, though single readings can be large or run the other way; tested in mouse RAW 264.7 cells; also: potency is read from the fitted curve at half-maximal effect; % is scaled to controls: 0 for no effect and ±100 for the full control effect; nearly all actives have a fitted effect of over 55% in size
* marks the source's active call; other numbers are inactive results; ? = inconclusive; . = no result given. Unless noted, calls follow the shape of the dose curve; as a rule, active = well fitted curve in the direction sought with a large enough effect; inconclusive = small, poorly fitted or top-dose-only effect, or another doubt; inactive = no such curve, though single readings can be large; an effect the other way counts as inactive or inconclusive.

Labels used below: A = DT40 TDP1 CPT; B = miR-21 reporter; C = TDP1 cell noCPT; D = TDP1 inh; E = uPA generation
[1] CCOC1=C2CN(S(=O)(=O)c3ccc(C)cc3)[C@H](c3cccs3)C[C@H]2n2c(=O)n(-c3ccccc3)c(=O)n2C1
  A: 5%	B: .	C: 8%	D: .	E: .
[2] CCN(CC)C(=O)C1=C(C)N(CCC2=CCCCC2)C(=O)C(CC(=O)NC(c2ccccc2)c2ccccc2)C1 (centres undefined)
  A: 18µM*	B: .	C: ?	D: .	E: .
[3] CC1=C(C(=O)N(C)C)CC(CC(=O)NC(c2ccccc2)c2ccccc2)C(=O)N1CCC1=CCCCC1 (centres undefined)
  A: ?	B: .	C: 21µM*	D: .	E: .
[4] C=CCc1ccc(OCCn2cncn2)c(OC)c1
  A: 9%	B: -8%	C: 1%	D: .	E: 1%
[5] CCn1c(=O)cc(SCC(=O)NCc2ccccc2OC)c2ccccc21
  A: ?	B: 24%	C: 23µM*	D: 5%	E: .
[6] CCn1c(=O)cc(SCC(=O)NCCc2ccc(OC)cc2OC)c2ccccc21
  A: ?	B: -2%	C: 23µM*	D: 9%	E: .
[7] CC(C)Oc1cccc(-c2cc(C(=O)NN3CCOCC3)c3ccccc3n2)c1
  A: 15µM*	B: 4%	C: 10µM*	D: 4%	E: 0%
[8] CCCc1ccc(-c2cc(C(=O)NN3CCOCC3)c3ccccc3n2)cc1
  A: ?	B: -35%	C: 0.46µM*	D: 2%	E: .
[9] CCc1ccc(-c2cc(C(=O)Nn3cnnc3)c3ccccc3n2)cc1
  A: 7.3µM*	B: ?	C: 13µM*	D: -3%	E: ?
[10] O=C(COC(=O)c1cc(Cl)ccc1O)Nc1ccc2c(c1)OCCO2
  A: ?	B: .	C: ?	D: 1%	E: -4%
[11] CCCCCCC1CC(=CN(C)C)C(=O)O1 (centres undefined)
  A: ?	B: .	C: 16µM*	D: .	E: .
[12] O=C(Nc1ccccc1)Nc1cccc2ccccc12
  A: 16µM*	B: -24%	C: ?	D: -3%	E: 3%
[13] O=C(Nc1ccccc1)Nc1ccc(O)c2ccccc12
  A: 1.6µM*	B: .	C: 12µM*	D: .	E: -21%
[14] O=C(Nc1cccc2ccccc12)N(c1ccccc1)c1ccccc1
  A: 21µM*	B: .	C: 21µM*	D: .	E: 2%
[15] NC(=O)Nc1cccc2ccccc12
  A: 11%	B: -1%	C: 2%	D: 5%	E: 1%
[16] CCOc1ccc(OCC)c(NC(=O)c2nnn(Cc3cc(Br)ccc3OC)c2N)c1
  A: -7%	B: 1%	C: -20%	D: 5%	E: .
[17] COc1cccc(C2c3c(ncn(-c4ccccc4Br)c3=N)Oc3ccc4ccccc4c32)c1 (centres undefined)
  A: .	B: .	C: .	D: 3%	E: .
[18] O=C(O)CCCCCNC(=O)c1ccc(Br)cc1
  A: 3%	B: 0%	C: -5%	D: 1%	E: -3%
[19] COc1cc(O)c(CCC(=O)c2ccc(OC)c(OC)c2)c(OC)c1
  A: 21µM*	B: -3%	C: ?	D: 4%	E: -3%
[20] COc1ccc(C(=O)CCc2ccc(OC)c(OC)c2)cc1
  A: ?	B: .	C: 18µM*	D: .	E: -3%
[21] COc1ccc(C(=O)Cc2ccc(OC)c(OC)c2)cc1
  A: -28%	B: -41%	C: -21%	D: 7%	E: -5%
[22] COc1ccc(CCC(=O)NO)cc1
  A: 11µM*	B: .	C: 16µM*	D: .	E: .
[23] COc1ccc(NC(=S)N(Cc2ccc(C(=O)O)cc2)Cc2ccc(OC)c(OC)c2)cc1
  A: 11%	B: -2%	C: 9%	D: 1%	E: -2%
[24] CNC(=O)CCc1ccc(OC)cc1
  A: 3%	B: -9%	C: -6%	D: .	E: -2%
[25] COc1ccc(C(CCN(Cc2ccc(OC)c(OC)c2)C(C)=O)C(C)C)cc1 (centres undefined)
  A: 18µM*	B: 3%	C: ?	D: .	E: -10%
[26] O=C(NCCO)c1ccc(-c2nnc(Nc3ccc(O)cc3)c3ccccc23)cc1
  A: 2%	B: 1%	C: 2%	D: .	E: -4%
[27] O=C(O)C1C2OC3C(OC(=O)C31)C2Br (centres undefined)
  A: -2%	B: .	C: -6%	D: .	E: 5%
[28] CS(=O)(=O)Nc1nnc(Cc2ccccc2)s1
  A: -4%	B: -2%	C: 0%	D: 2%	E: 1%
[29] COc1ccc(CCNC(=O)Cc2ccc(OC)c(OC)c2)cc1OC
  A: ?	B: 1%	C: ?	D: 8%	E: -7%
[30] COc1ccc(CCC(C)NC(=O)Cc2ccc(OC)c(OC)c2)c(OC)c1 (centres undefined)
  A: ?	B: 4%	C: 18µM*	D: .	E: -5%

Whole records, looked up by structure. Order of screens: DT40 TDP1 CPT	miR-21 reporter	TDP1 cell noCPT	TDP1 inh	uPA generation
`COc1ccc(CCC(C)NC(=O)Cc2ccc(OC)c(OC)c2)c(OC)c1` (centres undefined) is listed as ?	4%	18µM*	.	-5%
`COc1ccc(CCC(=O)NO)cc1` is listed as 11µM*	.	16µM*	.	.
`O=C(NCCO)c1ccc(-c2nnc(Nc3ccc(O)cc3)c3ccccc23)cc1` is listed as 2%	1%	2%	.	-4%
`COc1ccc(CCNC(=O)Cc2ccc(OC)c(OC)c2)cc1OC` is listed as ?	1%	?	8%	-7%

(cont.)
Labels used below: A = DT40 TDP1 CPT; B = miR-21 reporter; C = TDP1 cell noCPT; D = TDP1 inh; E = uPA generation
[31] Nc1cccc(S(=O)(=O)Nc2ccccc2)c1
  A: 0%	B: 0%	C: -7%	D: -3%	E: 4%
[32] COCCNC(=S)N1CCN(c2cccc(C(F)(F)F)c2)CC1
  A: ?	B: 10%	C: 23µM*	D: 3%	E: -3%
[33] FC(F)(F)c1cccc(N2CCN(C(=S)NCC3CCCO3)CC2)c1 (centres undefined)
  A: ?	B: 21%	C: 23µM*	D: 8%	E: -5%
[34] CCc1ccc(NC(=S)N2CCN(c3cccc(C(F)(F)F)c3)CC2)cc1
  A: ?	B: -2%	C: ?	D: 5%	E: 0%
[35] CC1(C)C(=O)NC2=C1C(=O)C(=O)c1ccccc12
  A: 1.3µM*	B: .	C: 0.94µM*	D: 18%	E: .
[36] Cc1cc(O)c(C=O)c2c1C(=O)Oc1c(COC(=O)/C=C/C(=O)O)c(O)c(C(=O)O)c(C)c1O2
  A: -5%	B: .	C: -16%	D: 40µM*	E: .
[37] Cc1cc(O)c(C=O)c2c1C(=O)Oc1c(CO)c(O)c3c(c1O2)C(O)OC3=O (centres undefined)
  A: -1%	B: -2%	C: -8%	D: .	E: 1%
[38] COc1cccc(N2CCN(c3ccc4nnc(CCC(=O)Nc5ncccc5C)n4n3)CC2)c1
  A: -25%	B: 5%	C: -15%	D: 2%	E: 6%
[39] c1cc2c(cc1C1=NNC(=NC3CC3)SC1)OCCO2
  A: 21µM*	B: ?	C: 16µM*	D: 5%	E: ?
[40] COc1ccc(N=C2NN=C(c3ccc4c(c3)OCCO4)CS2)cc1
  A: 21µM*	B: -25%	C: 26µM*	D: 4%	E: 2%
[41] FC(F)Sc1ccc(N=C2NN=C(c3ccc4c(c3)OCCO4)CS2)cc1
  A: 18µM*	B: 26%	C: 21µM*	D: 10%	E: -10%
[42] c1csc(C2=NNC(=NC3CCCCC3)SC2)c1
  A: ?	B: -35%	C: 23µM*	D: 8%	E: -7%
[43] CCOC(=O)Cc1cc(-c2ccc(O)cc2)nc2ccc3ccccc3c12
  A: ?	B: -1%	C: ?	D: 1%	E: 7%
[44] CCOC(=O)Cc1cc(-c2ccc(F)cc2)nc2ccc3ccccc3c12
  A: ?	B: -15%	C: 29µM*	D: -2%	E: 3%
[45] CCOC(=O)c1cc(Cl)c2c(ccc3ccccc32)n1
  A: 0%	B: .	C: -16%	D: .	E: .
[46] CCOC(=O)Cc1cc(-c2ccc(OC)cc2)nc2ccc3ccccc3c12
  A: 18µM*	B: -10%	C: ?	D: -9%	E: 3%
[47] CCn1c(SCC(=O)NCc2ccc3c(c2)OCO3)nc2c(c1=O)SCC2
  A: -8%	B: -6%	C: -13%	D: 1%	E: 5%
[48] COc1ccc(OC)c(CNc2nc3ccc(C)cc3n3nnnc23)c1
  A: -11%	B: 4%	C: -22%	D: 6%	E: .
[49] Cc1ccc(-c2nc3ccccc3n3nnnc23)cc1
  A: 13µM*	B: -18%	C: 7.3µM*	D: 1%	E: 7%
[50] Cc1ccc2nc(N3CCN(c4ccc(F)cc4)CC3)c3nnnn3c2c1
  A: 7.3µM*	B: 4%	C: 15µM*	D: -6%	E: .
[51] Cc1ccc2nc(Cl)c3nnnn3c2c1
  A: 1.8µM*	B: 0%	C: 2.6µM*	D: 8%	E: -14%
